In ChEMBL document CHEMBL6074669, “Discovery of (2R,4R)-4-((S)-2-Amino-3-methylbutanamido)-2-(4-boronobutyl)pyrrolidine-2-carboxylic Acid (AZD0011), an Actively Transported Prodrug of a Potent Arginase Inhibitor to Treat Cancer” (J Med Chem, 2024) one finds fold change (FC) data, which are given here for 1 compound.

SMILES strings stand for the structures.

What all share (type): functional, organism-based
For experiment [1], the target named is T1, Arginase-1 (Mus musculus) (UniProt Q61176).
T1 sequence (whole entry): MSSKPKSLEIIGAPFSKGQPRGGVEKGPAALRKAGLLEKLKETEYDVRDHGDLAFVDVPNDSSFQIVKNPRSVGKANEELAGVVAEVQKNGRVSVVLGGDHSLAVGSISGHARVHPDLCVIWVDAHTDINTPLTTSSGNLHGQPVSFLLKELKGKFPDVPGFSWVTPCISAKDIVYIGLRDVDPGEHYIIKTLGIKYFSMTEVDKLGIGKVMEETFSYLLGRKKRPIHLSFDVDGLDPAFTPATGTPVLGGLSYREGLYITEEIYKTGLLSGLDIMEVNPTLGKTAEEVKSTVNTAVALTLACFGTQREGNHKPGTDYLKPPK
Kind of experiment: In vivo inhibition of Arg1 in female B6C3F1 mouse xenografted with mouse Ag104Ld cells assessed as fold decrease in tumor ornithine at 30 mg/kg, po measured after 24 hrs in presence of anti-PD-L1 by LC-MS-MS analysis.

The target of experiment [2] is T1, Arginase-1 (Mus musculus). Kind of experiment: In vivo inhibition of Arg1 in female B6C3F1 mouse xenografted with mouse Ag104Ld cells assessed as fold increase in tumor arginine at 30 mg/kg, po measured after 24 hrs by LC-MS-MS analysis.
In experiment [3] the target is T1, Arginase-1 (Mus musculus). Kind of experiment: In vivo inhibition of Arg1 in female B6C3F1 mouse xenografted with mouse Ag104Ld cells assessed as fold increase in tumor arginine at 30 mg/kg, po measured after 24 hrs in presence of anti-PD-L1 by LC-MS-MS analysis.
Experiment [4] addresses T1, Arginase-1 (Mus musculus). Kind of experiment: In vivo inhibition of Arg1 in female B6C3F1 mouse xenografted with mouse Ag104Ld cells assessed as fold decrease in tumor ornithine at 30 mg/kg, po measured after 24 hrs by LC-MS-MS analysis.

Consider `CC(C)[C@H](N)C(=O)N[C@H]1CN[C@@](CCCCB(O)O)(C(=O)O)C1`, for which the fold change (FC) in experiment [1] came to 37; in experiment [2], 10; in experiment [3], 9.4; in experiment [4], 106.
